SMILES strings stand for the structures.

This data set concerns children undergoing tonsillectomy. In words: Respiratory depression and prolonged PACU stay due to RD by ABCB1 genotype (Example 7). To be noted: Whites, ABCB1 rs9282564 AA, N=171.

`CN1CC[C@]23c4c5ccc(O)c4O[C@H]2[C@@H](O)C=C[C@H]3[C@H]1C5` [morphine]: the RD % turned out to be 16%.

Source of the values: patent publication US10878939B2, “Methods and compositions for personalized pain management” (Children's Hospital Medical Center, priority 2014, dated 2020).
